The values that follow are results of earlier work, collected in patent publication US12440567B2, “Aqueous antibody formulation stabilized by antioxidants for parenteral administration” (AMGEN INC., priority 2007, dated 2025).

The conditions of this data set: cited from earlier work.

Turning to catechin, the solubility result is “limited solubility”.
